# Literature values, collected in patent US5935597A, “Drug delivery devices and methods for treatment of viral and microbial infections and wasting syndromes” (Cryopreservation Technologies CC, priority 1995, dated 1999).
# Conditions: cited from earlier work
smiles,measurement,setting,value
"CN(C)C=O [DMF, N,N'-dimethylformamide]",unchanged DMF in urine,fraction of administered dose,small fraction of an administered dose
same,excretion,in vivo,excretion occurs principally in the urine
same,metabolism,in vivo,"rapidly metabolized, mainly in the liver"
same,absorption,"through the skin, by inhalation, oral ingestion","readily absorbed through the skin, by inhalation, and upon oral ingestion"
